The record followed here is ChEMBL document CHEMBL4145520, “Small-molecule Mcl-1 inhibitors: Emerging anti-tumor agents” (Eur J Med Chem, 2018).

By UniProt entry, the sequences of proteins in these tests, tags left out.
UniProt P10415, whole entry: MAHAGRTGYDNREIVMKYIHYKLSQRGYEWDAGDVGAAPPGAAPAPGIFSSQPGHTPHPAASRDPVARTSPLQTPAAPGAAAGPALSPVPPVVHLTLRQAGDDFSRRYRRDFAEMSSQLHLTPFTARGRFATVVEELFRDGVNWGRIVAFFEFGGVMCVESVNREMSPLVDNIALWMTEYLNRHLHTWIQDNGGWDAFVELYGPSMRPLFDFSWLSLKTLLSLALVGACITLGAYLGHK

Where only a bound is given, the exact number is not on record here.

This experiment concerns the target Apoptosis regulator Bcl-2 (Homo sapiens, UniProt P10415). Briefly: Inhibition of Bcl-2 (unknown origin) by fluorescence polarization assay. (In general: Fluorescence polarisation rises when a labelled molecule tumbles more slowly, as on binding a larger partner.)

Usually Ki stands for the dissociation constant of the complex between target and ligand, obtained from inhibition or displacement. High values mean weaker binding, low ones tighter binding. On to `CC1(C)CCC(c2ccc(Cl)cc2)=C(CN2CCN(c3ccc(C(=O)NS(=O)(=O)c4ccc(N[C@H](CCN5CCOCC5)CSc5ccccc5)c(S(=O)(=O)C(F)(F)F)c4)cc3)CC2)C1` [NAVITOCLAX], for which the Ki is less than 1 nM.
